Results from PubChem BioAssay AID886 (National Center for Advancing Translational Sciences (NCATS), 2007).
The list shows a part of the results, in another mix than the full data. Results filed as inconclusive are left out. Calls of active or inactive are those of the source. Calls come from the whole dose curve; as a rule, active = well fitted inhibition curve with a large enough effect; inconclusive = small, poorly fitted or top-dose-only effect; inactive = no such curve, though single readings can be large or run the other way.

Amino acid sequences for entries named in this document (tags omitted). A change or cut given only in a name is not applied to a line headed by its entry.
UniProt Q99714: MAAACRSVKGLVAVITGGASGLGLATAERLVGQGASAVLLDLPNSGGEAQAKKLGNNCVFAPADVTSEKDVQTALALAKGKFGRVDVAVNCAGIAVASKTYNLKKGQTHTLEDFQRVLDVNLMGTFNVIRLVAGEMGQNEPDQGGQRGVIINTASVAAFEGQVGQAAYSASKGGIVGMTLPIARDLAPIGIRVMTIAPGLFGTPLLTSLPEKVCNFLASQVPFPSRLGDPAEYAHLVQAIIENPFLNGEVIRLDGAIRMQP

target: 3-hydroxyacyl-CoA dehydrogenase type-2 (Homo sapiens) (UniProt Q99714); assay: qHTS Assay for Inhibitors of HADH2 (Hydroxyacyl-Coenzyme A Dehydrogenase, Type II); conditions: recombinant HADH2, NADH fluorescence, beta-hydroxybutyryl-CoA; note: nearly all actives have a fitted effect of over 60% in size
Description: Assay Overview: NIH Molecular Libraries Screening Centers Network [MLSCN] NIH Chemical Genomics Center [NCGC] Structural Genomics Consortium [SGC] Grant Number: None HADH2: Hydroxyacyl-Coenzyme A dehydrogenase, type II, was supplied by researchers at the Structural Genomics Consortium, Oxford University lab (PI Udo Oppermann). The mitochondrial enzyme 17-hydroxysteroid dehydrogenase type 10 (HSD17-10) previously classified as type II hydroxyacyl-CoA dehydrogenase (HADH2) catalyzes the NAD+ dependent oxidation of a variety of substrates including acyl-CoAs, androgens and neurosteroids as well as bile acids(Shafqat N, Marschall HU, Filling C, et al. Biochemical Journal. 2003;376(Pt 1):49-60). […] An increase in the fluorescence intensity due to conversion of NAD+ to NADH was used to measure the enzyme activity.
Assay Protocol: Buffer: 100 mM Tris-HCl pH 9.0, containing 0.01 % Tween-20. […] The plates were immediately transferred to and read every 30 seconds for 4 min on ViewLux High-throughput CCD imager (Perkin-Elmer) using 360 nm excitation and 450 nm emission fluorescence protocol. The fluorescence intensity difference between the last and the first time points was used to compute reaction progress.
Potency is the fitted concentration of half-maximal effect.

SMILES	Potency
COC(=O)c1cccc(C(=O)Nc2cnc3ccccc3c2)n1	active: 31.6 µM
